Reference: patent publication US20240018093A1, “NEW AMMONIUM COMPOUNDS USEFUL AS SURFACTANTS” (RHODIA OPERATIONS, priority 2020, published 2024)

Assay: Adsorption on nanocellulose crystals: CNC aggregation monitored by dynamic light scattering
Assay type: physicochemical
Conditions: fixed [surfactant]+[CNC]=0.01 wt % in aqueous solution, DLS, lower range = better adsorption
From the text: Following the protocol described in E. K. Oikonomou et al., J. Phys. Chem. B, 2017, 121 (10), 2299-307 the adsorption properties of ammonium compounds can be investigated by monitoring the ratio X=[surfactant]/[CNC] or the mass fraction M=[surfactant]/([surfactant+[CNC]), at fixed [surfactant]+[CNC]=0.01 wt % in aqueous solution, required to induce the agglomeration of the cellulose nanocrystals.
Adsorption of cationic surfactant on negatively charged surface is an important property for various applications. This property is linked to the minimal concentration of cationic surfactant needed to produce aggregation of negatively charged cellulose nano crystal (CNC) in suspension in aqueous media. Comparison of the aggregate size can be monitored by dynamic light scattering (DLS). […]
The range of CNC aggregation corresponds to the range of ratio X (or M) triggering an aggregation of CNC, i.e. the range where the aggregate size measured by DLS is higher than a pure aqueous solution of CNC or an aqueous solution of surfactant at 0.01wt %.
Adsorption properties of surfactant materials QA3 and QA4 were measured in accordance with the protocol described in example 3.

- Range of CNC aggregation (Mass fraction) Mmin − Mmax (M=[surfactant]/([surfactant]+[CNC])): <<Mmin − Mmax range
- Range of CNC aggregation (Ratio) X = [surfactant]/[CNC] Xmin − Xmax: <<Xmin − Xmax range
Substance: glycine betaine diester [QA3]
